Test results taken from patent US7094429B2, “Process for preparing tannate liquid and semi-solid dosage forms” (Kiel Laboratories, Inc., priority 2001, dated 2006).

Conditions: from the results of Expt-II

commercially available tannate salt complex soluble: at least 25.0%
Substance: Phenylephrine Tannate
